Target: T1, Rattus norvegicus (residues 51-361) viperin (Rvip) (Rattus norvegicus, UniProt O70600)
T1 sequence (O70600 51-360 limits assumed): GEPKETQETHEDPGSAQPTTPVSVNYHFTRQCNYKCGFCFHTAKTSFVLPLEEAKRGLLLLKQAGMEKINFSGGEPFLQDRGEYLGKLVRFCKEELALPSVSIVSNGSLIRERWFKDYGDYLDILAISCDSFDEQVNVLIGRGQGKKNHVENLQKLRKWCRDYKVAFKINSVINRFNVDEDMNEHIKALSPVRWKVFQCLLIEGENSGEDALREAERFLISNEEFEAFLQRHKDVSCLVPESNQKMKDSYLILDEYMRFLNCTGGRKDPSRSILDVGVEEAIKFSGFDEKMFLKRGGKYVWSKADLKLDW
Test: In vitro characterization of viperin (Rvip) activity: 5′dA formation / ddhCTP production
Settings: coincubation of 1 mM deuCTP and 1 mM deoxyCTP; 5′-dA m/z readout

## Nc1ccn([C@H]2C[C@H](O)[C@@H](COP(=O)(O)OP(=O)(O)OP(=O)(O)O)O2)c(=O)n1 [deoxyCTP]
  substrate for Rvip: not a substrate

From patent publication US11279728B2, “Broad spectrum viral inhibitor” (Albert Einstein College of Medicine, priority 2017, dated 2022)
